In patent US11806404B2, “Site specific homogeneous with KSP inhibitors” (BAYER PHARMA AKTIENGESELLSCHAFT, priority 2015, dated 2023):

Tested on: respective Target-expressing cells
Assay: Internalisation assay with labelled commercially available antibodies
Assay type: cell-based
Details: vs isotype control

## Herceptin: "The commercially available antibodies (Cetuximab, Nimotuzumab, Herceptin)"
  internalization: target-dependent internalization
